Measurements: US20130059783A1, “COMPOSITIONS AND METHODS FOR EXPANDING BFU-E CELLS” (priority 2010, published 2013)

Tested on: mRNA expression in BFU-E cells
Assay: mRNA-Seq of BFU-E cells cultured 4 hours with or without Dex (Table S3)
Assay type: cell-based, mouse
Description: FIGS. 2A-2B. The effect of glucocorticoids on miRNA and mRNA expression in BFU-E cells determined by next generation sequencing. […] Both mRNAs and miRNAs were subjected to Illumina deep sequencing. […] (B) A plot similar to that in A for expression of individual mRNAs. mRNA expression was normalized using the RPKM method, which determines the relative expression of each gene to all expressed genes by giving each gene an RPKM count (number of uniquely aligning reads per kb exon per million total reads). […]
To minimize the risk of false positive GC target genes we chose to compare only highly expressed genes (≈10,000 genes with a multiplied RPKM count >4) (Mortazavi et al., 2008).
Samples for Paired-End mRNA-Seq were prepared using the Solexa kit according to the manufacturer's instructions with the exception that we extracted 300 bp bands, before and after the PCR step (Illumina). Images acquired from the Solexa sequencer were processed through the bundled Solexa image extraction pipeline version 1.4. mRNA-Seq reads were aligned to mouse NCBI build 37 (mm9) using ELAND, Briefly, the first 32 bases of a read were used as a seed. Each matched seed was then extended up to 36 bases and scored to break any ties between multi-matches. For mRNA expression counts, unique reads in the genome that landed within any exons of NCBI gene models (v37.1) were counted. The counts were normalized by the mRNA length to get the final RPKM values (i.e. reads per KB per million reads).

## C[C@@H]1C[C@H]2[C@@H]3CCC4=CC(=O)C=C[C@]4(C)[C@@]3(F)[C@@H](O)C[C@]2(C)[C@@]1(O)C(=O)CO [Dex, dexamethasone]
Gene Aqp3
  Expression level log2((100 nM DEX)* (0 nM DEX)): 4.27
Gene Fam55c
  Expression change log2 ((100 nM DEX)/(0 nM DEX))2: 1.07
Gene Fkbp11
  Expression change log2 ((100 nM DEX)/(0 nM DEX))2: 1.07
Gene Glul
  Expression change log2 ((100 nM DEX)/(0 nM DEX))2: 1.03
Gene Ier3, 100 nM DEX
  Expression of mRNA in BFU-E after 4 h 100 nM DEX (RPKM): 5.65 RPKM
Gene Kit
  Expression change log2 ((100 nM DEX)/(0 nM DEX))2: 1.07
Gene Klf5, 100 nM DEX
  Expression of mRNA in BFU-E after 4 h 100 nM DEX (RPKM): 4.68 RPKM
Gene Klf5, 100 nM vs 0 nM DEX
  Expression change log2 ((100 nM DEX)/(0 nM DEX)): 1.89
Gene Ncoa7, 100 nM vs 0 nM DEX
  Expression change log2 ((100 nM DEX)/(0 nM DEX)): 1.89
Gene Zfp36l2
  Expression change log2 ((100 nM DEX)/(0 nM DEX))2: 1.35
